Values quoted from earlier work as cited in patent publication US20230321114A1, “METHODS OF TREATING AGE-RELATED COGNITIVE DECLINE” (Woolsey Pharmaceuticals, Inc., priority 2020, published 2023).

Protein sequences, listed by entry. Tags and fused reporters are not part of them.
UniProt Q15746, whole entry: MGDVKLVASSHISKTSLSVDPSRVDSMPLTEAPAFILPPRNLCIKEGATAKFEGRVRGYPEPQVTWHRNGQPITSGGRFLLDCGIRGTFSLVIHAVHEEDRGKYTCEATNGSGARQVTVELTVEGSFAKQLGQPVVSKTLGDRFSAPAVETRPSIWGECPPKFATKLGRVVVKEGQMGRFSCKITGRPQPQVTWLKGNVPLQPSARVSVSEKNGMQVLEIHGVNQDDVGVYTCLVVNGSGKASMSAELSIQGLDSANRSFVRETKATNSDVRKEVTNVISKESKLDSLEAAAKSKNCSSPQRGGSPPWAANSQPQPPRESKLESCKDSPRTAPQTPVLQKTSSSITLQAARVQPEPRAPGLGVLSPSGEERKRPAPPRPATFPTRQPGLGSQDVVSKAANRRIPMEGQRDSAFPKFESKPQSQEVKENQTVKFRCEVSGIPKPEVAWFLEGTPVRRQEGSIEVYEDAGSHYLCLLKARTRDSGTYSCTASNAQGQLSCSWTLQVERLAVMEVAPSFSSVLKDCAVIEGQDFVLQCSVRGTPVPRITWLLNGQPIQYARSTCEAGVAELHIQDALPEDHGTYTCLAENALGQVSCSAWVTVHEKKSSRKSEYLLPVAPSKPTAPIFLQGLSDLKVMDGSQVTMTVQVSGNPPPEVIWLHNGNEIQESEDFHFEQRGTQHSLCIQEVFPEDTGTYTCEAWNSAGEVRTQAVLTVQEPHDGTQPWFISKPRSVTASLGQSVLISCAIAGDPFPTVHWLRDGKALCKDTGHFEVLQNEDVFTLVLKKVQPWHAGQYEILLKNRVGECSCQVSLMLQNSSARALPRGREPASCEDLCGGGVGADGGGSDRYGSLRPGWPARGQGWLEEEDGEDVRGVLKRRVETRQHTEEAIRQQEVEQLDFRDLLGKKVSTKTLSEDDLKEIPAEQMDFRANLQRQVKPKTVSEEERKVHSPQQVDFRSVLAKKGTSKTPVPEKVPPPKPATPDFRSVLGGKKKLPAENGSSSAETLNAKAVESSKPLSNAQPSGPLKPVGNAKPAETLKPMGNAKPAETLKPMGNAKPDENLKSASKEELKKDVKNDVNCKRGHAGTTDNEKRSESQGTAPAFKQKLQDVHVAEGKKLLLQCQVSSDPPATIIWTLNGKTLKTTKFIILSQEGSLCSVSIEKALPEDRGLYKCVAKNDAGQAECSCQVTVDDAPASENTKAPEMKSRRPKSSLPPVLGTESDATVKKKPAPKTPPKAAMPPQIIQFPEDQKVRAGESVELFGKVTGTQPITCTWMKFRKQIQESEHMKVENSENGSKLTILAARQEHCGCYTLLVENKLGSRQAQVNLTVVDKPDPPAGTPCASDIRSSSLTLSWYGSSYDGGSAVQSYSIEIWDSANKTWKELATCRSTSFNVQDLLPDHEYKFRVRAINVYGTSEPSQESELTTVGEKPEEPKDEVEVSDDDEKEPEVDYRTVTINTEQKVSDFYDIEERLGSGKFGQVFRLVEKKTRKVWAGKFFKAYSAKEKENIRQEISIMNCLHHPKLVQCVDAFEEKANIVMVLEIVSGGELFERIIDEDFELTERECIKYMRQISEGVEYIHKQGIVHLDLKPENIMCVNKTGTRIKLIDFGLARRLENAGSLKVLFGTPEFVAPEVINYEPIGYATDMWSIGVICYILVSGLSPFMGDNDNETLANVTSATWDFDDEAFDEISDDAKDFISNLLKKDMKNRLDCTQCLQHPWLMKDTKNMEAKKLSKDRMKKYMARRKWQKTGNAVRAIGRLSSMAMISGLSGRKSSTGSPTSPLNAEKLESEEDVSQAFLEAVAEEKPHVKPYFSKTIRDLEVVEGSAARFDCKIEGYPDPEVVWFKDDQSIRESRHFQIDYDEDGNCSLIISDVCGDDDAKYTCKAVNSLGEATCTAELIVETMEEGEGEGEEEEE

Molecular target: MLCK (Homo sapiens, UniProt Q15746)
Settings: compared with fasudil

SMILES: O=S(=O)(c1cccc2c(O)nccc12)N1CCCNCC1 [hydroxyfasudil]
- activity in vasodilation relative to fasudil parent molecule: slightly enhanced activity
